The source of these data is US8313771B2, “Phosphazene hydrogels with chemical corss-link, preparation method thereof and use thereof” (Korea Institute of Science and Technology, priority 2007, dated 2012).

The conditions of the series: pH 7.4.

The substance “poly[(isoleucine ethyl ester)(aminomethoxypolyethylene glycol 550)(glycylglycine)(glycylglycylcystine ethyl ester)phosphazene] [Example 15]” displayed a Max. gelling temp. of 30 °C.
